1 substance from patent publication US20110250133A1, “GASTRIN […] PEPTIDE COMPOUNDS” (priority 2003, published 2011) can be followed below.

This experiment deals with PC-3 prostate cancer cells. As to the kind of experiment: Effect of dasatinib on GRP receptor binding, proliferation and glucose uptake in PC-3 cells (single plate assay). It is filed as cell-based, human. As to conditions: PC-3, vs control without treatment. As to the method:
The cells were plated on Day 0 (7.5 k/well 96-well PE Scintiplate). […] To determine the cell numbers and the proliferation, 100 uL of 10% CCK—F solution in DPBS (Molecular technologies) was added to the same plate, incubated for 30 min at 37° C. and the relative fluorescence (RFU) measured at 535 nm. Base on the cell numbers and the ^177Lu-binding, the Bmax (fmoles bound/million cells) was calculated, and the results compared with the control.
For the glucose uptake study, a fluorescently labeled 2-deoxyglucose derivative (2-NBDG) was used. After the dasatinib treatment as described above, the cells were incubated with 2-NBDG (200 uM) in binding buffer for 2 h at 37° C. and measured RFU at 530 nm. The cell numbers were determined using CCK—F as described above. Based on the cell numbers Bmax for glucose uptake was determined and compared with the control.

As to dasatinib, the “increase of 177Lu-AMBA uptake” value was “up to 76%”. Moreover, for the setting “listed as Dasatinib”, the “increase of 177Lu-AMBA uptake” value is given as 76.7%.
